Source: PubChem
This is a sample that favours compounds with a hit; in the whole collection about 0.43% have one here.
GIV-Gai inh: blocks GIV peptide binding to rat Galpha-i3. P08753. Galpha-i3/FITC-GIV peptide fluorescence polarization, 90 min; stronger effect = lower value; scaled: aluminum fluoride 0%, vehicle 100%. percent of control (FP), % (test concentration not listed). 0.42% of 210,000 active. AID 1224905;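 active = replicate mean at 85% of control or lower, very high polarization wells dropped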;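 also: wells of about 15 µL received 100 nL stock; the first replicate is given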
HCMV UL50-53 inh: inhibitors of HCMV UL50-UL53 interaction, biochemical, HTRF; inhibition, % (concentration not given with the values); actives 0.15% (n = 190,000); normalized percent inhibition; in the data active = inhibition above about 27%, passing the limit was not always enough
Numbers without * were called inactive; x = not tested or not shown.

[1] COc1ccc(C2C=C(c3ccc(C)cc3)Nc3c(C(=O)Nc4ccccc4)cnn32)cc1 (configuration not stated)
[2] COc1ccc(C2=CC(c3cccc(OC)c3)n3ncc(C(=O)Nc4ccc(C)cc4)c3N2)cc1 (configuration not stated)
[3] O=C(NC1CCCC1)c1cc2sccc2n1Cc1ccccc1
[4] CCOC(=O)C1=C(CCl)OC(N)=C(C#N)C1c1ccccc1Br (configuration not stated)
[5] O=c1nc2sc3[nH]c(=O)sc3cc-2s1
[6] O=c1[nH]c2ccc(NS(=O)(=O)c3cnc[nH]3)cc2s1
[7] CCN(CC)c1ccc(/C=c2\sc3nc(-c4ccco4)nn3c2=O)cc1
[8] CN(C)c1ccc(/C=c2/sc3nc(-c4ccc(Cl)cc4)nn3c2=O)cc1

screen / no.	1	2	3	4	5	6	7	8
GIV-Gai inh	-67*	108	100	110	-47*	99	-83*	113
HCMV UL50-53 inh	x	2	-9	x	-78	-4	-14	x

[9] COC(=O)CSc1nc2ccccc2[nH]1
[10] O=C(O)CSCc1nc2ccccc2[nH]c1=O
[11] O=C(O)CSCc1nc2ccccc2[nH]1
[12] COC(=O)CSCc1nc2ccccc2[nH]c1=O
[13] CCC(C)NC(=O)c1cccc(-c2cc(N3CCCC3)ncn2)c1 (configuration not stated)
[14] O=C(O)c1ccc2ncsc2c1
[15] O=C(c1ccc2ncsc2c1)N1CCCCC1
[16] CN(C)/C=C/C=C1/CCc2ccccc2C1=O

screen / no.	9	10	11	12	13	14	15	16
GIV-Gai inh	100	145	x	212	102	x	x	-3.8*
HCMV UL50-53 inh	-43	52*	-4	57*	x	71*	13	-28

[17] CCN(CC)c1ccc(/C=C2\CCc3ccccc3C2=O)cc1
[18] CCOc1ccccc1NC(=O)[C@H]1O[C@@H]2OC(C)(C)O[C@@H]2[C@H]2OC(C)(C)O[C@H]21
[19] COc1ccc(S(=O)(=O)N2CCC3(CC2)Nc2ccccc2-n2cccc23)cc1OC
[20] COc1cc(CN2CCC3(CC2)Nc2ccccc2-n2cccc23)cc(OC)c1OC
[21] O=C1CC(c2ccccc2)C2=C(CC(c3cccs3)CC2=O)N1 (configuration not stated)
[22] COC(=O)c1ccc(NCN2C(=O)/C(=C\c3cc(OC)c(OC)c(OC)c3)SC2=S)cc1
[23] CN(C)c1ccc(/C=C2/N=C(c3cccs3)OC2=O)cc1
[24] CN(C)c1ccc(/C=C2\N=C(c3ccc(Br)o3)OC2=O)cc1

screen / no.	17	18	19	20	21	22	23	24
GIV-Gai inh	253	110	103	97	105	114	x	-56*
HCMV UL50-53 inh	x	x	6	60*	-2	x	-12	-26

[25] CC(C)N1CCc2c(sc(NC(=O)C3CC3)c2-c2nc3ccccc3s2)C1
[26] CN1CCc2c(sc(NC(=O)C3CC3)c2-c2nc3ccccc3s2)C1
[27] CN1CCc2c(sc(NC(=O)CN3C(=O)c4ccccc4C3=O)c2-c2nc3ccccc3s2)C1
[28] CC(=O)N1CCc2c(sc(NC(=O)CSc3ccc(C)cc3)c2-c2nc3ccccc3s2)C1
[29] COc1cccc(/C=C/C(=O)NCc2csc(-c3ccccc3)n2)c1
[30] O=C(NCCCn1c(-c2ccncc2)nc2cccnc21)Nc1ccc2c(c1)OCCO2
[31] Cc1ccc(/C=C/C(=O)Nc2ccc(-c3nnc4n3CCCCC4)cc2)o1
[32] Cc1c2cnn(CC(=O)N3CCc4ccccc43)c(=O)c2c(C)n1Cc1ccc(Cl)cc1

screen / no.	25	26	27	28	29	30	31	32
GIV-Gai inh	-3.2*	-3.2*	124	100	x	108	x	104
HCMV UL50-53 inh	x	x	x	x	5	-5	-77	x

[33] O=C(O)CN1C(=O)/C(=C\c2ccc(-c3ccc(Cl)c([N+](=O)[O-])c3)o2)SC1=S
[34] CCN1C(=O)/C(=C\c2ccc(-c3ccc(Cl)c(C(=O)O)c3)o2)SC1=S
[35] Cc1[nH]cnc1CN1CCc2c(c3ccccc3n2C)C1=O
[36] Cc1[nH]cnc1CN1CCCCCCC1
[37] CN(C)N1C(=O)/C(=C/c2cccs2)SC1=Nc1ccccc1
[38] COc1ccc2ccccc2c1/C=C1\SC(=Nc2ccccc2)N(N(C)C)C1=O
[39] COc1ccc(C2CC(=O)N3CN(C(C)c4ccccc4)CSC3=C2C#N)cc1 (configuration not stated)
[40] CCN(CC)Cc1c(O)ccc2cc(-c3nc4ccccc4s3)c(=O)oc12

screen / no.	33	34	35	36	37	38	39	40
GIV-Gai inh	111	-15*	x	101	85*	108	109	-18*
HCMV UL50-53 inh	-44	-391	90*	-4	3	x	-39	x

Three entries from above, set out differently:
#	Compound	GIV-Gai inh	HCMV UL50-53 inh
39	COc1ccc(C2CC(=O)N3CN(C(C)c4ccccc4)CSC3=C2C#N)cc1 (configuration not stated)	109	-39
40	CCN(CC)Cc1c(O)ccc2cc(-c3nc4ccccc4s3)c(=O)oc12	-18*	x
36	Cc1[nH]cnc1CN1CCCCCCC1	101	-4

(continued)
[41] O=c1oc2c(CN3CCCC3)c(O)ccc2cc1-c1ccccc1
[42] CC1CCCN(Cc2c(O)ccc3cc(-c4nc5ccccc5s4)c(=O)oc23)C1 (configuration not stated)
[43] CCOc1cccc2cc(-c3nc4ccccc4s3)c(=O)oc12
[44] O=C(NCCN1CCOCC1)c1cnc2sc3c(n2c1=O)CCC3
[45] CN1C=C(C(F)(F)F)C=C/C1=C(/C#N)c1nnc2n1CCCCC2
[46] CN(C)c1ccc(/C=C/C(=C(C#N)C#N)C2CC2)cc1
[47] N#CC(C#N)=C(/C=C/c1ccccc1)C1CC1
[48] CC(=O)N1c2ccccc2NC2=C(C(=O)CC(c3ccccc3)C2)C1c1ccc(C)cc1 (configuration not stated)

screen / no.	41	42	43	44	45	46	47	48
GIV-Gai inh	115	-32*	143	98	x	-45*	x	103
HCMV UL50-53 inh	x	-82	x	-23	-66	-39	-3	-11

[49] CC1CCC(NC(=O)C2CCCN2S(=O)(=O)c2ccc3nc(-c4ccccc4)[nH]c3c2)CC1 (configuration not stated)
[50] Cn1nc(C(=O)Nc2ccc3c(c2)OC2(CCCC2)O3)ccc1=O
[51] CCC1C(c2ccccc2)NC(c2ccccc2)CC1(O)Cc1ccccc1 (configuration not stated)
[52] O=c1oc2cc(O)ccc2cc1-c1nc(-c2cccs2)cs1
[53] CC(=O)Oc1ccc2cc(-c3nc(-c4ccc(Cl)c(Cl)c4)cs3)c(=O)oc2c1
[54] O=c1oc2cc(O)ccc2cc1-c1nc(-c2ccc(Cl)c(Cl)c2)cs1
[55] CC(=O)Oc1ccc2cc(-c3nc(-c4cccs4)cs3)c(=O)oc2c1
[56] CCOC(=O)c1[nH]c(C)c(CN(Cc2ccc(C)cc2)C(=O)c2ccccc2F)c1C

screen / no.	49	50	51	52	53	54	55	56
GIV-Gai inh	99	x	119	-32*	116	-69*	150	100
HCMV UL50-53 inh	x	-27	x	x	x	x	x	x

[57] COCCOC(=O)C1=C(C)NC2=C(C(=O)CC(c3ccc(OC)c(OC)c3)C2)C1c1ccccc1OC(C)C (configuration not stated)
[58] COc1ccc(C(c2c(O)[nH]c(=O)[nH]c2=O)N(Cc2ccccc2)C(C)C)c(OC)c1OC (configuration not stated)
[59] Cc1csc2c(=O)sc(NC(=O)c3ccco3)nc12
[60] Cc1csc2c(=O)sc(NC(=O)c3cccs3)nc12
[61] C=C1C[C@@H](O)[C@H](/C=C/[C@@H](O)CCCCC)[C@H]1C/C=C\CCCC(=O)O
[62] N#CC1=C([S-])N[C@@](O)(c2ccccc2)[C@H]([n+]2cccc3ccccc32)[C@H]1c1ccc(Br)cc1
[63] CCN1C(=O)/C(=C\C=C2/N(CC)c3ccc(C(=O)OC)cc3N2CC)SC1=S
[64] CCN=C1S/C(=C\c2ccc(C(=O)OC)cc2)C(=O)N1CC

screen / no.	57	58	59	60	61	62	63	64
GIV-Gai inh	102	98	103	103	x	120	-74*	100
HCMV UL50-53 inh	-8	-3	33	58*	-9	x	-44	-58

[65] O=C(Nc1ccccc1C(=O)NC1CC1)c1ccco1
[66] Cc1ccc(-c2noc(C3CCN(C(=O)c4sc(C)nc4C)CC3)n2)cc1
[67] Cc1nnc(NS(=O)(=O)c2ccc(OC(F)(F)F)cc2)s1
[68] N#CC1=C(N)SC(N)=C(C#N)C1c1cccc(C(F)(F)F)c1
[69] CC(=O)C1=C(C)OC(N)=C(C#N)C1c1cccs1 (configuration not stated)
[70] N#CC1=C(N)SC(N)=C(C#N)C1c1ccc(O)cc1

screen / no.	65	66	67	68	69	70
GIV-Gai inh	105	108	112	-83*	100	-74*
HCMV UL50-53 inh	-3	-16	1	-50	x	-41
